The numbers were not newly measured in patent EP4717267A1, “SYNERGISTIC COMBINATION FOR TREATING CANCER” (FUNDACION UNIVERSITARIA SAN ANTONIO (UCAM), priority 2023, dated 2024), which cites them from elsewhere.

Where two headings read alike, the source gives them in different places.

The test system of this series is MDA-MB-231 breast carcinoma cells. Conditions: cited from earlier work.

On to `COc1cccc2c1C(=O)c1c(O)c3c(c(O)c1C2=O)C[C@@](O)(C(=O)CO)C[C@@H]3O[C@H]1C[C@H](N)[C@H](O)[C@H](C)O1` [Doxorubicin, (7S,9S)-7-[(2R,4S,5S,6S)-4-amino-5-hydroxy-6 methyloxan-2-yl]oxy-6,9,11-trihydroxy-9-(2-hydroxyacetyl)-4-methoxy-8,10-dihydro-7H tetracene-5,12-dione], for which the “MDA-MB-231 cell viability, of untreated control” value by setting is: (0.05 nM Doxorubicin alone) 54%; (0.1 nM Doxorubicin alone) 48%.
